Six compounds from EP1142587A1 (priority 1998, dated 2000) can be followed below.

Chains of the proteins cited; added tags and fusions are not shown.
UniProt P33535, whole entry: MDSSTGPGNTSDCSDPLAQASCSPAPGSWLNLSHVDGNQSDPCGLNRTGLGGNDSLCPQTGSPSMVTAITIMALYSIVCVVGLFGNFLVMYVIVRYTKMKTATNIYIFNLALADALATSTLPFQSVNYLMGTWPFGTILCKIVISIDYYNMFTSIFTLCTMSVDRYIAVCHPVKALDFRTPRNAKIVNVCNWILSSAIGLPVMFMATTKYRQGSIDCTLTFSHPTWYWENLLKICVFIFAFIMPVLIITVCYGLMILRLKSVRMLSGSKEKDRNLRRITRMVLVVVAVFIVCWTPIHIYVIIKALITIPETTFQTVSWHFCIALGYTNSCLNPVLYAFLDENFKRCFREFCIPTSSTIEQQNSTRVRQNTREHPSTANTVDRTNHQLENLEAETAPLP

For the assay, the target named is µ opioid receptor (Rattus norvegicus, UniProt P33535). Description: Binding affinity with a µ opioid receptor ([3H]-DAMGO membrane binding). The note with it: read-out: µ Ki value; rat forebrain membrane fraction, 1nM [3H]-DAMGO, 25°C 90 minutes.

Take `COc1ccc(CN2CCC3(CC2)C(=O)NCN3c2ccccc2)cc1` [Example 14, 1'-(4-methoxybenzyl)-spiroimidazolidine-4,4'-piperidine-3-phenyl-5-on]: the inhibitory constant (Ki) is 2.7 nM.

For `O=C1NCN(c2ccccc2)C12CCN(Cc1ccc(Cl)nc1)CC2` [Example 15, 1'-(6-chloro-3-pyridyl)methyl-spiroimidazolidine-4,4'-piperidine-3-phenyl-5-on], the Ki was found to be 0.4 nM.

In the case of `Cc1ccc(CN2CCC3(CC2)C(=O)NCN3c2ccccc2)cn1` [Example 16, 1'-(6-methyl-3-pyridyl)methyl-spiroimidazolidine-4,4'-piperidine-3-phenyl-5-on], the inhibition constant (Ki) is 0.6 nM.

Take `O=C1NCN(c2ccccc2)C12CCN(Cc1cccnc1)CC2` [Example 17, 1'-(3-pyridyl)methyl-spiroimidazolidine-4,4'-piperidine-3-phenyl-5-on]: the Ki is 15 nM.

With `O=C1NCN(c2ccccc2)C12CCN(Cc1ccc(Br)cc1)CC2` [Example 18, 1'-(4-bromobenzyl)-spiroimidazolidine-4,4'-piperidine-3-phenyl-5-on], the inhibitory constant (Ki) came out at 3.4 nM.

Consider `Cc1ccc(CN2CCC3(CC2)C(=O)NCN3c2ccccc2)cc1` [Example 23, 1'-(4-methylbenzyl)-spiroimidazolidine-4,4'-piperidine-3-phenyl-5-on], for which the inhibition constant Ki was 4.2 nM.
